{"source": "patent US7572606B1", "about": "(Nereus Pharmaceuticals, Inc., priority 2005, dated 2009)", "system": "NF-κB-mediated luciferase activity in HEK293 NF-κB/Luc cells", "assay": "NF-κB-mediated luciferase reporter gene assay", "type": "cell-based, human", "settings": "pretreatment of NF-κB/Luc 293 cells", "experimental": "The HEK293 NF-κB/luciferase reporter cell line is a derivative of the human embryonic kidney cell line (ATCC; CRL-1573) and carries a luciferase reporter gene under the regulation of 5×NF-κB binding sites. […] When performing the luciferase assay, the DMEM basal medium was replaced with phenol-red free DMEM basal medium and the G418 was omitted.\nFor NF-κB-mediated luciferase assays, HEK293 NF-κB/luciferase cells were seeded at 1.5×10^4 cells/well in 90 μl phenol-red free DMEM complete medium into Corning 3917 white opaque-bottom tissue culture plates. For Formulae II-2, II-4, II-5A and II-18, a 400 μM starting dilution was made in 100% DMSO and this dilution was used to generate an 8-point half log dilution series. This dilution series was further diluted 40× in appropriate culture medium and ten μl aliquots were added to the test wells in triplicate resulting in final test concentrations ranging from 1 μM to 320 pM. […]\nAt the end of the TNF-α stimulation, 100 μl of Steady Lite HTS luciferase reagent (Packard Bioscience) was added to each well and the plates were left undisturbed for 10 min at room temperature before measuring the luciferase activity. The relative luciferase units (RLU) were measured by using a Fusion microplate fluorometer (Packard Bioscience).\nNF-κB inducible luciferase activity was measured at 6 hours."}
{"smiles": "CC[C@H]1C(=O)N[C@@]2([C@@H](O)[C@@H]3C=CCCC3)C(=O)O[C@@]12C", "note": "[Formula II-17]", "values": [{"measurement": "luciferase activity upon TNF-α stimulation", "value": "dose-dependent decrease of luciferase activity"}]}
